Biological target: Mitogen-activated protein kinase 14 (Homo sapiens) (UniProt Q16539)
Details: HeLa, dose 50.0 µM

Amino acid sequences for entries named in this document (tags omitted).
UniProt Q16539, whole entry: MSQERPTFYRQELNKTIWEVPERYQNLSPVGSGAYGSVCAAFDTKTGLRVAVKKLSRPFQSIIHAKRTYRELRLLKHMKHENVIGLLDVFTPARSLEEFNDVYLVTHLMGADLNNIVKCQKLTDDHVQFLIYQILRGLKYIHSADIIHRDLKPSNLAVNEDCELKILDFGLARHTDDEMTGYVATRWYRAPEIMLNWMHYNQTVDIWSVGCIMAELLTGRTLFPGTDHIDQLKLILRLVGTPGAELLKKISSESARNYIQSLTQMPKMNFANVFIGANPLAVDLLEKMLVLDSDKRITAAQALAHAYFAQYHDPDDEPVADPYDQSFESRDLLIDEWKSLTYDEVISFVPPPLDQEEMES

- Tm: 59 °C
SMILES: Cn1c(NC[C@@H](N)Cc2ccccc2)nc(-c2ccncc2)c(-c2ccc3ccccc3c2)c1=O
